From patent publication US20260384460A1, “COMPOUND BASED ON CORYDALMINE STRUCTURE AND USE THEREOF” (published 2026)

Assays:
[1] = tested on: acetic acid-induced writhing model in mice; test: Analgesia test in acetic acid-induced writhing model (oral gavage); details: single oral gavage, dose per compound in Table 1, 0.6% acetic acid 2 h after administration, n=5, mean±standard error; for Number of Writhing, 5-15 min: 5-15 min after acetic acid, blank 17 ± 15; for Number of Writhing, 15-30 min: 15-30 min after acetic acid, blank 20 ± 14; for Time to start writhing: blank 241 ± 95; for Number of Writhing, Total: blank 37 ± 26
Protocol: (§1) 1) The animal mice (CD-1 mice, age: 6-8 weeks, sex: male, body weight: 20-24 g, number: 120, animal supplier: SPF (Beijing) Biotechnology Co., Ltd.) underwent a 7-day quarantine period, during which the routine health examination was conducted by veterinarians. The animals with abnormalities were excluded from the study prior to experimentation.
(§2) The animal mice were housed in a SPF-grade laminar flow clean room with constant temperature and constant humidity at the Pharmaron (Beijing) New Drug Technology Co., Ltd. Animal Center (an AAALAC-accredited facility), with 5 mice per cage. Feeding room was maintained at a temperature of 22±3 °C and a humidity of 40-70%, with a light radiation of 12-hour light/dark cycle. Cages were made from polycarbonate. Autoclaved clean beddings were made from soft corncob and changed twice weekly. Diet and drinking water: Clean-grade rodent diet (purchased from Beijing Keao Xieli Feed Co., Ltd.). The drinking water was autoclaved, and the food was irradiated with cobalt 60 ray. The animals were free to ingest sterile food and drinking water.
Each cage was provided with a cage label, indicating the animal number, sex, line, receipt time, grouping, and start time of experiment. Animal number: Each animal was marked with a unique animal number at its tail.
The animals were randomly divided to groups according to their weight, and the specific groups and administration modes were listed in Table 1 below, wherein [COMPOUND LEFT OUT], an existing drug commonly used for analgesia, was used as positive control in the present disclosure.
Prior to the administration, the mice were fasted for 16 hours. According to Table 1, the administration modes in various groups were as follows: Positive drug [COMPOUND LEFT OUT]: intravenous injection; other drug or blank groups: oral gavage; administration volume: 10 mL/kg; number of administration times: single.
2) All the mice were weighed and recorded in detail before the administration. After the administration, various groups were injected with 0.6% glacial acetic acid, wherein Group 2 was injected 10 min after the administration, and other groups were injected 2 h after the administration. […] The writhing number of mice were taken as the index of pain reaction, evaluating the analgesic effect of the compound. The writhing reaction occurred more frequently within 30 min after the injection of 0.6% glacial acetic acid. The number of “writhing reactions” occurred were observed and recorded within 5-15 min and 15-30 min after the injection of 0.6% glacial acetic acid.
The writhing test results of mice in various groups were represented as “mean±standard error”. The data of various groups were subjected to data statistics using SPSS16.0 software package with the statistical method of One-way ANOVA. The groups were compared to determine if there was a statistical difference therebetween, wherein P<0.05 indicated a statistical difference. The recorded results of the writhing start time of the mice in various groups were shown in FIG. 3, and the writhing test results of the mice in various groups were shown in Table 2.

[2] = tested on: inflammatory pain model induced by complete Freund's adjuvant in mice; test: Mechanical pain test of inflammatory pain model induced by complete Freund's adjuvant in mice (mechanical pain threshold, Up-down testing method); details: A3 8.4 mg/kg oral, n=4
Excerpt: (§3) • 1) The animal mice (C57BL/6J, 8-week-old, male, purchased from Zhejiang Charles River Experimental Animal Technology Co., Ltd.; Certificate Number: 20220617Abzz0619000690; License Number: SCXK (Zhejiang) 2019-0001; Issued by: Zhejiang Charles River Experimental Animal Technology Co., Ltd.; 18-22 g) were adaptively reared for one week after purchase, during which the mice were fed ad libitum; • 2) In the first 3 days of the test, the mice were placed on a metal pain measuring rack to adapt for 40-60 min, during which the experimenter contacted the animals adaptively (contacting the mice for 3-5 min, Day 1 to Day 3) to reduce the stress reaction of the experimental animals to the experimenters; • 3) After the completion of the environmental adaptation (Day 4), the Baseline values of the animals were tested (Up-down testing method), and the animals were randomly divided into 4 groups, including Model Group (Model), Control Group I (Morphine), Control Group II (A10-0, Corydalmine), Test Group (A3) with 4 mice in a group (n=4); • 4) The inflammatory pain model was induced by complete Freund's adjuvant, including the steps of: pipetting 20 μL of the complete Freund's adjuvant (CFA) solution with a sample microinjector, inserting the needle from the toe of one hind paw of the animal, slowly injecting the CFA solution into the subcutaneous position of the palm to form a bulge under the skin, keeping the needle in situ for 20 s, and slowly withdrawing the needle in rotatory manner to avoid any liquid leakage; • 5) The mechanical pain thresholds and the plantar thicknesses of the mice were tested 0.5 h, 2 h, 8 h, and 24 h after the first administration (in Control Group I, morphine was subcutaneously administered; and in other groups, the agents were administered by oral gavage at intervals of 8 h); wherein the dosage was 2 mg/kg in Control Group I (Morphine), 5 mg/kg in Control Group II (A10-0, Corydalmine), and 8.4 mg/kg in Test Group (A3).
The measurement method of mechanical pain (Up-down testing method) includes the following steps: • a. An experimental animal was placed on a mechanical pain metal net rack and stood for 30 min to 60 min. After the animal stopped looking, exploring, and being quiet, the test began. • b. After adaptation, the middle plantaris of hind paw was stimulated with a fiber.
The experimenter placed the Von Frey fiber perpendicular to the plantar surface, applied a sufficient force to slightly bend the fiber relative to the paw for about 6-8 s; • c. The contact should be gentle (no puncture), and the force was slowly applied until the fibers began to bend. • d. […] The first data point after the first inflection point was taken as Reading 1, and the test was stopped after the obtainment of 4 readings. […]

[3] = tested on: inflammatory pain model induced by complete Freund's adjuvant in mice; test: Plantar thickness in inflammatory pain model induced by complete Freund's adjuvant in mice; details: A10-0 5 mg/kg oral, n=4, FIG. 2; for effect of reducing the sole-swelling degree (plantar thickness): 0.5, 2, 8, 24 h after first administration, Morphine 2 mg/kg s.c., A3 8.4 mg/kg oral
Excerpt: as §3

[4] = tested on: writhing reaction in mice injected with 0.6% glacial acetic acid; test: Detection of activity: acetic acid writhing in mice, intravenous administration (inhibition rate); details: i.v., 10 mpk; 0.6% acetic acid 15 min after administration; writhing within 20 min; vs control group without administration
Protocol: as §1, with “The” for “1) The”
as §2, with “a” for “a SPF-grade laminar flow”, “room,” for “room with constant temperature and constant humidity at the Pharmaron (Beijing) New Drug Technology Co., Ltd. Animal Center (an AAALAC-accredited facility),”, “22±3YC” for “22±3 °C”, “Kleao” for “Keao”, “water. All the mice were weighed and recorded in detail before the administration.” for “water.”
Before the administration, the mice were fasted for 16 h. The administration was conducted by intravenous injection with an administration volume of 10 mL/kg and a dose of 10 mpk. […] The number of “writhing reactions” occurred within 20 min after the injection of 0.6% glacial acetic acid and the number of “writhing reactions” in the control group without administration were observed, and a ratio thereof was calculated. […]

[5] = 0.5, 2, 8, 24 h after first administration, Morphine 2 mg/kg s.c., A10-0 5 mg/kg oral, FIG. 1

SMILES	Number of Writhing, 5-15 min [1]	Number of Writhing, 15-30 min [1]	Time to start writhing [1] [s]	Number of Writhing, Total [1]	duration of the analgesic effect ([2]; 0.5, 2, 8, 24 h after first administration, Morphine 2 mg/kg s.c., FIG. 1)	analgesic effect on the inflammatory pain model (mechanical pain threshold) [2, 5]	effect of reducing the sole-swelling degree (plantar thickness) [3]	Inhibition Rate (%) [4] [%]	comparison with the positive drug Morphine (analgesic and sole-swelling-reducing effect) ([2]; vs Morphine 2 mg/kg s.c., A10-0 5 mg/kg oral, FIG. 1 and FIG. 2)	duration of the sole-swelling-reducing effect [3]
COCCOCCOCCOCCOCCOCCOCCOCCOCC(=O)Oc1ccc2c(c1OC)CN1CCc3cc(OC)c(OC)cc3[C@@H]1C2	5 ·	3 ± 7	294 ± 223	8 ·						
CCCCCCCCC/C=C/C=C/C=C/C=C/C=C/C=C/C(=O)Oc1ccc2c(c1OC)CN1CCc3cc(OC)c(OC)cc3[C@@H]1C2	5 ·	5 ± 3	310 ± 210	10 ·						
CCCCCCCC/C=C\CCCCCCCC(=O)Oc1ccc2c(c1OC)CN1CCc3cc(OC)c(OC)cc3[C@@H]1C2	12 ± 10	10 ± 10	275 ± 66	23 ± 19						
CCCCCCCCC(=O)Oc1ccc2c(c1OC)CN1CCc3cc(OC)c(OC)cc3[C@@H]1C2	15 ± 15	13 ± 10	493 ± 484	28 ± 24						
CN1CC[C@]23c4c5ccc(O)c4O[C@H]2[C@@H](O)C=C[C@H]3[C@H]1C5					the effect cannot be maintained for a long term	good analgesic effect	did not have an effect of reducing the sole-swelling degree			
CCOC(=O)C(CCC(=O)Oc1ccc2c(c1OC)CN1CCc3cc(OC)c(OC)cc3[C@@H]1C2)NC(=O)[C@@H](C)c1ccc(-c2ccccc2)c(F)c1 (stereo partly drawn)								60.33		
COc1cc2c(cc1OC)[C@@H]1Cc3ccc(O)c(OC)c3CN1CC2	4 ·	5 ± 3		9 ·		did not have a significant analgesic effect	had an effect of reducing the sole-welling degree		different effects in terms of analgesic effect and sole-swelling-reducing effect	the effect was maintained for a short time
